Data reported in patent US10610526B2 (priority 2015, dated 2020).

By UniProt entry, the sequences of proteins in these tests, tags left out. Residues count along the entry.
UniProt P36544, 23-502: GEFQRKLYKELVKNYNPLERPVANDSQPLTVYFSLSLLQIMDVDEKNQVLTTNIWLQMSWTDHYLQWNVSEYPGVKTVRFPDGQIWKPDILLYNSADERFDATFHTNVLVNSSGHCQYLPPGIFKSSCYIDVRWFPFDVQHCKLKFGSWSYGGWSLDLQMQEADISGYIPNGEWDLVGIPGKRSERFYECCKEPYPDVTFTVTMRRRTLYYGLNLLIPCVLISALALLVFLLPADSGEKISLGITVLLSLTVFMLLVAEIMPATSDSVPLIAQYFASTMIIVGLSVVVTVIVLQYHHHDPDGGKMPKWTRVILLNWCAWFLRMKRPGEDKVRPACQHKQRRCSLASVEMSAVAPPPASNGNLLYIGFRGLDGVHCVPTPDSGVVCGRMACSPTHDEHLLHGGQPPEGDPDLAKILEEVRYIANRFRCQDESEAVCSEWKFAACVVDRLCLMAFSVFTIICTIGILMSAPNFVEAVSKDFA

Biological target: α7 nAChRs (Homo sapiens, UniProt P36544)
Assay: cell-based
Settings: for Emax: read-out: Agonist Effect Emax

## CN1CCCC1c1cccnc1 (racemic) [Synthetic RS racemic nicotine, RS-Nicotine]
  Agonist Effect Hillslope: −1.97
  Antagonist Effect Hillslope: 3.38
  Emax: 108%

## CN1CCC[C@@H]1c1cccnc1 [Synthetic R nicotine, R nicotine]
  Emax: 110%

## CN1CCC[C@H]1c1cccnc1 [Synthetic S nicotine, S nicotine]
  Agonist Effect Hillslope: −3.36
  Antagonist Effect Hillslope: 5.83
  Emax: 102%
